Assay results taken from patent US5656637A, “Thiazole derivatives” (Yamanouchi Pharmaceutical Co., Ltd., priority 1990, dated 1997).

By UniProt entry, the sequences of proteins in these tests, tags left out. Residues count along the entry.
UniProt P35563, 24-483: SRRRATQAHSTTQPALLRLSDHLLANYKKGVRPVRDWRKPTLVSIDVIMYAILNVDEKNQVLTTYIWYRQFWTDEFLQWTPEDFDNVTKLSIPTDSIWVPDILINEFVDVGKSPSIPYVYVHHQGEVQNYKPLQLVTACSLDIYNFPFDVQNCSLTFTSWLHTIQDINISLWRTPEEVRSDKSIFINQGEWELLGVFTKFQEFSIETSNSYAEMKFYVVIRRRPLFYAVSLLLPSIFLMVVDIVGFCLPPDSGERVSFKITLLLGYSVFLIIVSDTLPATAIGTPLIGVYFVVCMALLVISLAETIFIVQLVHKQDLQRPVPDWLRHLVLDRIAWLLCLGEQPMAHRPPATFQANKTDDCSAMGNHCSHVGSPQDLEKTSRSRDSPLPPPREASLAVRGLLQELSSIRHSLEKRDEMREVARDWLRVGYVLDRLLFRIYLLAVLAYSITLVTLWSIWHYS

Molecular target: T1, 5-HT3 receptor (Rattus norvegicus, UniProt P35563)
T1 construct: Male Wistar rats, 9 weeks old, were anesthetized with urethane; from tissue; host or cells: whole animal in vivo: anesthetized male Wistar rat (endogenous receptor; tissue not given)
Assay: 5-HT3 receptor stimulating action (Bezold-Jarisch reflex evoking action) in anesthetized rat, i.v.
Type: in vivo, rat (male Wistar)
Procedure: Male Wistar rats, 9 weeks old, were anesthetized with urethane 1 g/kg i.p. and the blood pressure and the heart rate were determined under artificial ventilation.
1) 5-HT3 receptor stimulating action (Bezold-Jarisch reflex evoking action)

In the case of `NCCc1c[nH]c2ccc(O)cc12` [Serotonin, serotonin], the “BJ reflex evoking activity Emax (maximal bradycardiac response)” value (i.v., anesthetized rat) was 257.9 beats/min and the ED50 (rat, iv, read-out: BJ reflex evoking activity ED50) was 0.0156 mg/kg.
